# Assay results as given in publication PMC9362525 (Diabetologia, 2022).
# Test system: adult participants, liver steatosis by VCTE
substance,measurement,value
mono(2-ethylhexyl) phthalate [MEHP],OR for NAFLD per unit increase of urinary concentration,no significant association
